From patent US20090312437A1, “Anthraquinones and Analogs from Rhuem palmatum for Treatment of Estrogen Receptor Beta-Mediated Conditions” (Bionovo, Inc., A Delaware Corporation, priority 2008, published 2009)

Protein sequences, listed by entry. Tags and fused reporters are not part of them.
UniProt P03372, whole entry: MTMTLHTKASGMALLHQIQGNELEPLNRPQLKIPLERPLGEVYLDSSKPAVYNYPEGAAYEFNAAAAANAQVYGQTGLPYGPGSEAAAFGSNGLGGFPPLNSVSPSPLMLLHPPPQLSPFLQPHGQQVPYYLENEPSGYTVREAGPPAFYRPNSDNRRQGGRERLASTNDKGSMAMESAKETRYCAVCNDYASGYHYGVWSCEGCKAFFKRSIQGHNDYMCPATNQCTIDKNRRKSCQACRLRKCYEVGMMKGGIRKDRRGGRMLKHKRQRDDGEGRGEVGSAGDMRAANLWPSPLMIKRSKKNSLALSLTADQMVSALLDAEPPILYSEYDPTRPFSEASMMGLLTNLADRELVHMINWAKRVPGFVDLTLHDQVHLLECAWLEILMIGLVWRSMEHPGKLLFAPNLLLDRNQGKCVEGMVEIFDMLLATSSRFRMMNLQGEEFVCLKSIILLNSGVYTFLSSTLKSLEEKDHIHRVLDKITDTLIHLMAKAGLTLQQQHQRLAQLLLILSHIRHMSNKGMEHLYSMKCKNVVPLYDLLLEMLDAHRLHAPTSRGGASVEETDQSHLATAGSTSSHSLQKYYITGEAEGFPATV
UniProt Q92731, whole entry: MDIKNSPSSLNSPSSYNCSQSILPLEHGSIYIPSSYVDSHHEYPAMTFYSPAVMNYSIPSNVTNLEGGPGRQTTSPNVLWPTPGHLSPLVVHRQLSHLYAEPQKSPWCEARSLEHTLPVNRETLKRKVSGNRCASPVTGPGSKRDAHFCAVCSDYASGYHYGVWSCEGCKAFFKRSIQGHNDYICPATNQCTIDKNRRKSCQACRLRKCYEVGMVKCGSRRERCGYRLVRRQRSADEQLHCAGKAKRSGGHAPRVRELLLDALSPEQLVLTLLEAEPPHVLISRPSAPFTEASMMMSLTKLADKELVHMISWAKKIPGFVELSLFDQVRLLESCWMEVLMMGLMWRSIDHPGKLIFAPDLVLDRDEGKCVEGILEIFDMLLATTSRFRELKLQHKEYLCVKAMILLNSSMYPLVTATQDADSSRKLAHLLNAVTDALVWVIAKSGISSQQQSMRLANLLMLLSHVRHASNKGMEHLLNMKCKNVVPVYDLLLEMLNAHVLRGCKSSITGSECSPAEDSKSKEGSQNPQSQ

How the values were obtained:
ERα [1] = target: T1, ERα (Homo sapiens, UniProt P03372); assay: ERE-tk-Luc luciferase transient transfection assay in U2OS cells with ERα; type: cell-based; parameters: expressed in transfected cells; host or cells: U2OS (human osteosarcoma); conditions: ERα expression vector
ERβ = ERβ (Homo sapiens, UniProt Q92731); assay: ERE-tk-Luc luciferase transient transfection assay in U2OS cells with ERβ
ERα [2] = target: T1, ERα; conditions: TNF-RE tkLuc, U2OS cells

emodin [compound 1]
activation of ERE-tk-Luc in the presence of ERα (ERα [1]): not significantly | activation of ERE-tk-Luc in the presence of ERα (ERα [1]; listed as emodin (1)): not ERα | stimulation of expression of ERE-tk-luc (fold), compound alone (ERβ; compound + control): about 4 × | stimulation of expression of ERE-tk-luc (fold), compound plus estradiol (ERβ; compound + estradiol): ~6 × | repression of TNF-α activation of TNF-RE in the presence of ERα (ERα [2]): not ERα
